The subject of one data set is Vero E6 cells. As to conditions: Vero E6 cells without virus, 3 days.
Data set [1] has as its system NF-κB reporter (Luc)-THP-1 human monocytic cells. The experiment in a line: MTT cell proliferation assay (cytotoxicity control). Format: cell-based. As to conditions: activators combined with 100 nM plitidepsin, 6 hours. In general terms: Formazan colour is commonly taken as a measure of viable cells.
The test system of data set [2] is SARS-CoV-2. The experiment in a line: Planned Phase II study of single-dose plitidepsin in adult COVID-19 patients at discharge from the Emergency Department. Format: in vivo, human. As to conditions: single dose of plitidepsin (7.5 mg), day 6 after the administration; expected result of planned study.
Data set [3] relates to SARS-CoV-2. As to the kind of experiment: Mouse models of SARS-CoV-2 infection (hACE2). Format: in vivo.
Data set [4] in a line: Pharmacokinetics in plasma and lung, hamsters. It counts as in vivo. As to conditions: hamster, single intravenous dose 0.2 mg/kg, read-out: lung-to-plasma ratio (lungAUC0-∞/plasmaAUC0-∞).
Data set [5] deals with IL-1, IL-6, IL-8 and TNF-α secretion. As to the kind of experiment: ELISA for TLR-triggered secreted cytokines in THP-1 cells. It counts as cell-based, human. As to conditions: 100 nM plitidepsin, 6 hours; TNF-α stimulated THP-1 cells. A general note: ELISA stands for enzyme-linked immunosorbent assay.
Data set [6] concerns WNV-GFP (lineage 2; molecular clone WN956). The experiment in a line: microbe, parasite or virus in culture. It counts as cell-based, West Nile virus.
Data set [7] in a line: Pharmacokinetics in plasma and lung, rats. It counts as in vivo. As to conditions: rat, single intravenous dose 0.2 mg/kg, read-out: lung-to-plasma ratio (lungAUC0-∞/plasmaAUC0-∞).
Data set [8] deals with WNV-GFP (lineage 2; molecular clone WN956). The experiment in a line: microbe, parasite or virus in culture. As to conditions: West Nile virus, Vero C1008, 48 h.
Data set [9] relates to IL-6, IL-10 and TNF-α secretion. The experiment in a line: Ex vivo LPS-B5-triggered cytokine secretion by bronchoalveolar lavage cells of treated mice. As to conditions: mice 1 mg/kg i.v., BAL collected 12 hours after, ex vivo 15 µg/mL LPS-B5 for 3 or 6 hours. Format: in vivo, mouse.
A short description of data set [10]: Pharmacokinetics in plasma and lung, mice. It counts as in vivo, mouse.
The subject of another data set is HCoV-229E. Format: cell-based.
In data set [11] the test system is Huh7 human hepatoma cells. As to the kind of experiment: Cell biomass (DAPI) in Huh7 cells. Format: cell-based. As to conditions: 48 hours.
The nature of data set [12]: Cell biomass (DAPI) in Huh7 cells. It counts as cell-based, human. As to conditions: human, Huh7 hepatoma cells.
Setting [13] is: female, plasma, Mouse (F) C57BL6/J, 1.0 mg/kg single intravenous bolus.

Experimental findings from patent US20230295236A1, “COMPOUNDS FOR USE IN INFLAMMATORY CONDITIONS” (priority 2020, published 2023) are described below.

Each structure is given as a SMILES string. pEC50: −log10 of the molar value. Where “and” joins values, the source holds several entries; their conditions need not be identical. Equal entries are not always repeated. Entries after “also recorded” stand apart in the source; their conditions may differ. Where two headings read alike, the source gives them in different places.

Usually pEC50 stands for −log10 of the EC50, conventionally taken in molar units. As usually defined, the EC90 is the point of the concentration-response curve where the effect stands at 90%. As usually defined, the AUC(0-inf) is total exposure, with the tail of the curve extrapolated. A low value points to low exposure. As a reminder, the Cmax is the peak of the concentration-time curve. A word on the clearance: it is the rate of elimination divided by the concentration. A lower clearance goes with a low capacity for elimination. The term CC50 denotes the concentration at which the toxic effect on the cells reaches its halfway point. Low values mean greater toxicity to the cells, high ones lower toxicity to the cells. In the case of `CC[C@H](C)[C@H]1NC(=O)[C@@H](NC(=O)[C@@H](CC(C)C)N(C)C(=O)[C@@H]2CCCN2C(=O)C(C)=O)[C@@H](C)OC(=O)[C@H](Cc2ccc(OC)cc2)N(C)C(=O)[C@@H]2CCCN2C(=O)[C@H](CC(C)C)NC(=O)[C@@H](C)C(=O)[C@H](C(C)C)OC(=O)C[C@@H]1O` [plitidepsin], the “Cytotoxic effects at concentrations inhibiting viral cytopathic effect” value with Vero E6 cells is “no cytotoxic effects of the drug were observed”. Also, the “Survival (MTT assay)” value in data set [1] is given as “No cytotoxic effect was detected”. In the data set on SARS-CoV-2 [2], the “Replication cycle threshold (Ct) value” was “greater than 30”. Moreover, the “Antiviral effects in vivo” value in the data set with SARS-CoV-2 [3] (mouse model of adenovirus-mediated hACE2 infected with SARS-CoV-2) and with SARS-CoV-2 [3] (transgenic K18-hACE2 mice infected with SARS-CoV-2) was “potent antiviral effects in vivo” each time. In addition, the Kp in data set [4] is 909; in data set [7], 460; in data set [10] (C57BL6/J, mouse, lung and plasma, mice, single intravenous dose 1.0 mg/kg, read-out: lung-to-plasma ratio (lungAUC0-∞/plasmaAUC0-∞)), 133. In addition, in [5], the “Secretion of IL-8 and TNF-α (ELISA)” value was “unable to reduce IL-8 and TNF-α”. The Therapeutic index in [6] (Huh7 cells) was 22. Besides, the “Concentration with antiviral activity in the absence of measurable interference with cell viability (p<0.05)” value in data set [6] (Huh-7 cells) was 1.5 nM. Moreover, the pEC50 in data set [6] (West Nile virus, Huh-7, Huh7 cells, 48 hours, MOI 0.01, read-out: EC50 infection efficiency) was 9.18; in [8] (read-out: EC50 infection efficiency), 8.31. The EC90 is 3.86 nM in data set [6] (West Nile virus, Huh-7, Huh7 cells, 48 hours, MOI 0.01, read-out: EC90 infection efficiency) and 9.5 nM in data set [8] (read-out: EC90 infection efficiency). The “LPS-B5-induced secretion of IL-6, IL-10 and TNF-α by BAL cells” value in data set [9] is “failed to show a marked increase in IL 6, IL 10, and TNFα; also recorded: clearly inhibited the production of pro-inflammatory cytokines IL-6, and TNF-α; also recorded: significantly reduce the secretion of IL-6, IL-10 and TNFα”. Moreover, the AUC(0-inf) in [10] (setting [13]) was found to be 225 ng·h/mL. Moreover, in data set [10] (setting [13]), the highest level (Cmax) was 50.7 ng/mL. Moreover, in data set [10] (setting [13]), the clearance was 73.3 mL/min/kg. Also, in [10] (female, plasma, Mouse (F) C57BL6/J, 1.0 mg/kg single intravenous bolus, read-out: Vdss), the Vd was determined as 102 L/kg. In addition, in data set [10] (female, plasma, Mouse (F) C57BL6/J, 1.0 mg/kg single intravenous bolus, read-out: t½ (converted)), the half-life was 18.2 h. The “Lowest concentration with antiviral effect” value in the data set on HCoV-229E is ≤ 0.5 nM and ≤ 0.555 µg/l. Besides, the “Concentration at which loss of cell biomass is statistically significant (p<0.05)” value in data set [11] turned out to be 7.2 nM. This molecule also came in with a 50% cytotoxic concentration (CC50) at 48 h in data set [12] of 14.7 nM.
